The chains behind the UniProt entries cited, without tags or fusion partners. Residues count along the entry.
UniProt P06213, 1023-1298 limits assumed: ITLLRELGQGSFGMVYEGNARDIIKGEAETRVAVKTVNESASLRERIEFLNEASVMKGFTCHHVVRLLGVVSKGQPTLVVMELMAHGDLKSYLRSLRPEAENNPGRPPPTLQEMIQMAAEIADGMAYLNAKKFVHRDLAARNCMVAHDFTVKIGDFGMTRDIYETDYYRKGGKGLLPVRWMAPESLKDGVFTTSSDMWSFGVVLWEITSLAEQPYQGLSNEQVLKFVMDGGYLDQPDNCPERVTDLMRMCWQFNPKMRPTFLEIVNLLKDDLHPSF

According to US20030134303A1, “Adenine nucleotide-binding protein-directed probes, and methods of their synthesis and use” (ActivX Biosciences, Inc,, priority 2001, published 2003):

Target: T1, GST-fusion protein of the insulin receptor kinase domain (GST-InsRK) (Homo sapiens, UniProt P06213)
T1 construct: GST-fusion protein of the insulin receptor kinase domain (GST-InsRK)
Type: binding
Conditions: pretreatment with 25 or 250 μM for 30 minutes, then (5) 25 μM for 30 minutes

fluorosulfonylbenzoic acid [FSBA]
inhibition of labeling of GST-InsRK by (5): inhibited
